{"source": "patent US5071877A", "about": "“Metal oximate/polyethylene glycols chemicals decontaminant system” (dated 1991)", "key": {"[1]": {"test": "Dissolution of active ingredient salt in base cream / base medium", "details": "for Dissolution of salt in base 3: 1.25 molar in base cream 3; for Fraction of salt that appears to dissolve, bases 1 and 2: 1.25 molar in base creams 1 and 2, remainder finely dispersed"}, "[2]": {"test": "Decontamination (destruction) of CW agent HD, gas chromatographic analysis", "details": "tetraglyme"}, "[3]": {"test": "Decontamination (destruction) of CW agent GD, gas chromatographic analysis", "details": "tetraglyme"}, "[4]": {"details": "method I, salt:agent 1:1, salt 0.025 M"}, "[5]": {"details": "method I, salt:agent 2:1, salt 0.05 M"}, "[6]": {"details": "method II (in situ), salt:agent 1:1, salt 0.025 M"}, "[7]": {"details": "method II (in situ), salt:agent 2:1, salt 0.05 M"}}}
{"compound": "CC(=O)C(C)=NO", "values": [{"measurement": "Dissolution of salt in base 3", "setting": "[1]", "value": "appears to dissolve completely"}, {"measurement": "Fraction of salt that appears to dissolve, bases 1 and 2", "setting": "[1]", "value": "at least 75%"}]}
{"compound": "COCCOCCO", "values": [{"measurement": "% Decontamination at reaction time 10 sec", "setting": "[2]; [4]", "value": 75, "unit": "%"}, {"measurement": "% Decontamination at reaction time 1 min", "setting": "[2]; [4]", "value": 91, "unit": "%"}, {"measurement": "% Decontamination at reaction time 3 min", "setting": "[2]; [4]", "value": 96, "unit": "%"}, {"measurement": "% Decontamination at reaction time 10 sec", "setting": "[2]; [5]", "value": 99, "unit": "%"}, {"measurement": "% Decontamination at reaction time 30 sec", "setting": "[2]; [5]", "value": 100, "unit": "%"}, {"measurement": "% Decontamination at reaction time 1 min", "setting": "[2]; [5]", "value": 100, "unit": "%"}, {"measurement": "% Decontamination at reaction time 10 sec", "setting": "[2]; [6]", "value": 85, "unit": "%"}, {"measurement": "% Decontamination at reaction time 30 sec", "setting": "[2]; [6]", "value": 92, "unit": "%"}, {"measurement": "% Decontamination at reaction time 1 min", "setting": "[2]; [6]", "value": 82, "unit": "%"}, {"measurement": "% Decontamination at reaction time 3 min", "setting": "[2]; [6]", "value": 89, "unit": "%"}, {"measurement": "% Decontamination at reaction time 5 min", "setting": "[2]; [6]", "value": 94, "unit": "%"}, {"measurement": "% Decontamination at reaction time 10 sec", "setting": "[2]; [7]", "value": 87, "unit": "%"}, {"measurement": "% Decontamination at reaction time 30 sec", "setting": "[2]; [7]", "value": 99, "unit": "%"}, {"measurement": "% Decontamination at reaction time 1 min", "setting": "[2]; [7]", "value": 100, "unit": "%"}, {"measurement": "% Decontamination at reaction time 3 min", "setting": "[2]; [7]", "value": 100, "unit": "%"}, {"measurement": "% Decontamination at reaction time 5 min", "setting": "[2]; [7]", "value": 100, "unit": "%"}, {"measurement": "% Decontamination at reaction time 1 min", "setting": "[3]; [4]", "value": 91, "unit": "%"}, {"measurement": "% Decontamination at reaction time 3 min", "setting": "[3]; [4]", "value": 93, "unit": "%"}, {"measurement": "% Decontamination at reaction time 1 min", "setting": "[3]; [5]", "value": 100, "unit": "%"}, {"measurement": "% Decontamination at reaction time 1 min", "setting": "[3]; [6]", "value": 82, "unit": "%"}, {"measurement": "% Decontamination at reaction time 3 min", "setting": "[3]; [6]", "value": 77, "unit": "%"}, {"measurement": "% Decontamination at reaction time 5 min", "setting": "[3]; method II (in situ), salt:agent 1:1, salt 0.025 M, 5 min", "value": 80, "unit": "%"}]}
{"compound": "CC(C)=NO", "values": [{"measurement": "Dissolution of salt in base 3", "setting": "[1]", "value": "appears to dissolve completely"}, {"measurement": "Fraction of salt that appears to dissolve, bases 1 and 2", "setting": "[1]", "value": "at least 75%"}]}
{"compound": "[K+].[O-]c1ccccc1", "values": [{"measurement": "Fraction of salt that appears to dissolve, bases 1 and 2", "setting": "[1]", "value": "at least 75%"}]}
{"compound": "CC(=NO)c1ccccc1", "values": [{"measurement": "Dissolution of salt in base 3", "setting": "[1]", "value": "appears to dissolve completely"}, {"measurement": "Solubility in base 4", "setting": "[1]; 1.25 molar in base cream 4", "value": "appears to be soluble"}, {"measurement": "Fraction of salt that appears to dissolve, bases 1 and 2", "setting": "[1]", "value": "at least 75%"}]}
